The values that follow come from paper PMC11862611 (RSC Medicinal Chemistry, 2025).

Sequences of proteins named here, by UniProt entry; tags and fusion partners are left off.
UniProt E9AFX2, whole entry: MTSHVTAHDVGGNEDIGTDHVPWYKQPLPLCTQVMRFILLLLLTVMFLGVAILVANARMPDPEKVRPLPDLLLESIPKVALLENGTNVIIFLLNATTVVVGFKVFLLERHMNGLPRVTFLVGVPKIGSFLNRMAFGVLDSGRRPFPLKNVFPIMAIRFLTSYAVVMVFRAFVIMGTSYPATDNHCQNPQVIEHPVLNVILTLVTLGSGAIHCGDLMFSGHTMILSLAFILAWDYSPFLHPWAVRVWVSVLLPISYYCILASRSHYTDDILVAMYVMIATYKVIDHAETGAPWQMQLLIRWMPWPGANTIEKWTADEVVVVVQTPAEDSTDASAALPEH

This assay deals with L. majIPCS (Leishmania major, UniProt E9AFX2). In words: inhibition of microsomal enzyme preparation of L. majIPCS. The following applies: for IC50: read-out: LmjIPCS IC50. In kind it is biochemical. The source says: When tested against microsomal enzyme preparations of L. majIPCS[16] (Fig. 2, Table S1 ^†) the comparisons of pyrrolidine, tetrahydrofuran and cyclopentane derivatives 19, 21–23 supported earlier observations that all active compounds retained a basic nitrogen in the head group.[17] In general, whilst enzyme inhibitory activity was retained in a number of these analogues, much lower activity was observed against promastigote parasites. […] Speculating that this lower activity in promastigote parasite assays reflected a (membrane) transport issue, we then explored the corresponding ether derivative 27. Attempts to prepare this by acid catalysed ether formation failed and ultimately this was achieved through displacement of the corresponding benzylic chloride 25 (Scheme 3).
Fig. 2 Activity of a selection of simple amide and triazole linked CF analogues against a microsomal preparation of L. majIPCS and L. major promastigote parasites, respectively.

What is called IC50 is the concentration at which inhibition is half-maximal. Consider `CN1CCN(c2ncc(NC(=O)C(c3ccccc3)c3ccc(Cl)cc3)cn2)CC1` (centres unmarked), for which the “LmjIPCS inhibition % at 20 µM ± SD” value is reported as 89.6 ± 2.2% and the IC50 stood at 6.11 µM.

Consider `O=C(NCC1CCCN1)C(c1ccccc1)C1CCCC1` (centres unmarked), for which the “LmjIPCS inhibition % at 20 µM ± SD” value was determined as 46.4 ± 5.8% and the 50% inhibitory concentration (IC50) worked out at 28.3 µM.

In the case of `O=C(NCc1ncc[nH]1)C(c1ccccc1)c1ccc(Cl)cc1` (centres unmarked), the “LmjIPCS inhibition % at 20 µM ± SD” value was 53.4 ± 8.5% and the IC50 was 23.9 µM.

In the case of `O=C(NCc1nc2ccccc2s1)C(c1ccccc1)c1ccc(Cl)cc1` (centres unmarked), the “LmjIPCS inhibition % at 20 µM ± SD” value is listed as 79.4 ± 9.0% and the IC50 came to 36.2 µM.

In the case of `O=C(Nc1ccc2c(c1)CN(CCF)C2)C(c1ccccc1)c1ccc(Cl)cc1` (centres unmarked), the “LmjIPCS inhibition % at 20 µM ± SD” value amounted to 59.8 ± 29.9% and the IC50 was 17.1 µM.

As for `O=C(Cc1ccc(C(F)(F)F)cc1C(F)(F)F)NCC1CCCN1` (centres unmarked), the “LmjIPCS inhibition % at 20 µM ± SD” value came to 57.2 ± 10.9% and the IC50 was 16.5 µM.

As to `O=C(C[C@@H]1CCCN1)NC(Cc1ccccc1)c1ccccc1` (some centres unmarked), the “LmjIPCS inhibition % at 20 µM ± SD” value turned out to be 44.4 ± 4.9% and the IC50 was found to be 24.9 µM.

`CN(C)CCn1cc2ccc(NC(=O)C(c3ccccc3)c3ccc(Cl)cc3)cc2n1` (centres unmarked): the “LmjIPCS inhibition % at 20 µM ± SD” value is 90.2 ± 1.7% and the IC50 was 4.37 µM.

`O=C(C(c1ccccc1)c1ccc(Cl)cc1)N1CC2(CNC2)C1` (centres unmarked): the “LmjIPCS inhibition % at 20 µM ± SD” value is listed as 77.9 ± 5.1% and the IC50 turned out to be 11.4 µM.

For the compound `O=C(NCC1CNC1)C(c1ccccc1)c1ccc(Cl)cc1` (centres unmarked), the “LmjIPCS inhibition % at 20 µM ± SD” value was 86.0 ± 2.7% and the IC50 is 13.1 µM.

As for `O=C(NCCCN1CCCC1)C(c1ccccc1)c1ccc(Cl)cc1` (centres unmarked), the “LmjIPCS inhibition % at 20 µM ± SD” value was 76.1 ± 8.5% and the IC50 is 20.5 µM.

With `O=C(NC1CC2CCC(C1)N2)C(c1ccccc1)c1ccc(Cl)cc1` (centres unmarked), the “LmjIPCS inhibition % at 20 µM ± SD” value turned out to be 89.2 ± 2.6% and the half-maximal inhibitory concentration (IC50) came out at 5.4 µM.

For `CCCCCC(NC(=O)C[C@@H]1CCCN1)c1ccccc1` (some centres unmarked), the “LmjIPCS inhibition % at 20 µM ± SD” value is recorded as 81.9 ± 2.8% and the IC50 came to 12.7 µM.
